This is a selection; strong and weak results do not stand in their true shares. Some tests of the compounds listed are not included; inactive here does not mean inactive elsewhere. Calls of active or inactive are those of the source. Cut-off read from the data, not from the text of the source: active = inhibition above about 50%; inactive = the rest.
Target: Mannose-6-phosphate isomerase (Homo sapiens) (UniProt P34949)
Assay: MPI enzyme activity inhibition – biochemical, fluorescence intensity, coupled assay, primary screen (AID 1209);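 note: plate controls were DMSO vehicle for no effect and wells lacking substrate for full effect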
Details: purified PMI enzyme, at 20 µM, active compounds read high

By UniProt entry, the sequences of proteins in these tests, tags left out.
UniProt P34949, whole entry: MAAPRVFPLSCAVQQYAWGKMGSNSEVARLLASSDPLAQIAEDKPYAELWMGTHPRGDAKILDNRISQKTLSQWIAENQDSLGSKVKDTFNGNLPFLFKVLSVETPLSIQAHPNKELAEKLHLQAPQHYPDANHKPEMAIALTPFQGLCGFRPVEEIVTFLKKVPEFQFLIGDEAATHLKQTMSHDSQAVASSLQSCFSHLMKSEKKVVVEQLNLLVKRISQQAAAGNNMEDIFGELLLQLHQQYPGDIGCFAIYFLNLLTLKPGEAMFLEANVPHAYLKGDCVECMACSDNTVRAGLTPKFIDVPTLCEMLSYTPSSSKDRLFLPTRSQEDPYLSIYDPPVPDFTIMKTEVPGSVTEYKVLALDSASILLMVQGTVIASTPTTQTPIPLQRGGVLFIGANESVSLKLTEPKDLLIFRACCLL

SMILES	inhibition
O=C(OC1CN2CCC1CC2)C(CO)(c1ccccc1)c1ccccc1 (centres undefined)	inactive: 0%
CN(C)c1cccc(C(=O)NCC2(N(C)C)CCCCC2)c1	inactive: 9.6%
COc1cccc(C(=O)NCC2(N3CCCCC3)CCCCC2)c1	inactive: 10.2%
Cc1ccccc1C(=O)NCC1(N2CCCCC2)CCCCC1	inactive: 3%
CN(C)C1CCCC1OC(=O)C(O)(c1ccccc1)c1ccccc1 (centres undefined)	inactive: -3%
CCN1CCCC(OC(=O)C2(O)c3ccccc3C=Cc3ccccc32)C1 (centres undefined)	inactive: -3.3%
C=CCN1CCN(CCOC(=O)C(O)(c2ccccc2)c2ccccc2)CC1	inactive: -18.3%
O=C(NCC1(N2CCCCC2)CCCCC1)c1cc([N+](=O)[O-])ccc1Cl	inactive: -10.5%
CC(C)N1C(=O)CC2(CCN(CCOC(=O)C(O)(c3ccccc3)c3ccccc3)CC2)C1=O	inactive: -1.3%

From PubChem BioAssay AID1209 (Sanford-Burnham Center for Chemical Genomics, 2008)
